In patent publication US20070213394A1 (priority 2004, published 2007):
Read-outs that look alike come from different tables or passages of the source.

By UniProt entry, the sequences of proteins in these tests, tags left out.
UniProt P41145, whole entry: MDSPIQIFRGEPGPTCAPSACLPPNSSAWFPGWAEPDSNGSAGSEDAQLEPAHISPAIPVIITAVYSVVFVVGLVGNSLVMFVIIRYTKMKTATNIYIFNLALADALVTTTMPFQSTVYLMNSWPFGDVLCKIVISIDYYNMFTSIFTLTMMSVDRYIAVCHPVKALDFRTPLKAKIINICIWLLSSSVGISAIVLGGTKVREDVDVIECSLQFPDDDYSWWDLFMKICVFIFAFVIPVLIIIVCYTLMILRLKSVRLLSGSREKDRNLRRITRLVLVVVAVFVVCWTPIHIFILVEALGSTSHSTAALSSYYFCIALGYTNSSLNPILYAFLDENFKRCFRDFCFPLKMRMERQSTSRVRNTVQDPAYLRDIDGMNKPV

Molecular target: human kappa opioid receptor (Homo sapiens, UniProt P41145)
Conditions: Table 1

Row | Compound | Ki (human kappa opioid receptor) [µM] | Ki (cells printed in μM) [µM]
1 | CC(=O)O[C@H]1C[C@@H](C(=O)NCC(=O)OCc2ccccc2)[C@]2(C)CC[C@@H]3C(=O)O[C@H](c4ccoc4)C[C@]3(C)[C@H]2C1=O | 1.45 | –
2 | CC(=O)O[C@H]1C[C@@H](C(=O)N[C@H](CO)C(=O)OCc2ccccc2)[C@]2(C)CC[C@H]3C(=O)O[C@H](c4ccoc4)C[C@]3(C)[C@H]2C1=O | – | > 10
